Experimental data taken from patent US20070134793A1, “REDIFFERENTIATION MEDIUM FOR MAKING DEDIFFERENTIATED CHONDROCYTE TO BE REDIFFERENTIATED INTO CHONDROCYTE” (priority 2004, published 2007).

Test system: dedifferentiated chondrocyte (P4, derived from human auricular cartilage)
Test: Study of preferable amount of each component in the redifferentiation medium (type II collagen expression)
Type: cell-based
Conditions: BMP-2 400, 200, 100 ng/mL compared; insulin 5 μg/mL, T3 10^-7 M
Description: Preferable ranges of the contents of insulin, BMP-2 and T3 in the medium for redifferentiating the dedifferentiated chondrocyte into the chondrocyte in Example 2 containing insulin, BMP-2 and T3 were elucidated by the following three comparisons.
First, when the contents of BMP-2 were changed to 400 ng/mL, 200 ng/mL and 100 ng/mL, respectively, with a content of insulin of 5 μg/mL and a content of T3 of 10^-7 M, the expression amount of type II collagen was the largest when the content of BMP-2 was 200 ng/mL (FIG. 5).
Second, when the contents of T3 were changed to 10^-6 M, 10^-7 M and 10^-8 M, respectively, with a content of insulin of 5 μg/mL and a content of BMP-2 of 200 ng/mL, the expression amount of type II collagen was the largest when the content of T3 was 10^-7 M (FIG. 6).
Third, the contents of insulin were changed to 50 μg/mL, 5 μg/mL and 0.5 μg/mL, respectively, with a content of BMP-2 of 200 ng/mL and a content of T3 of 10^-7 M, the expression amount of type II collagen was the largest when the content of insulin was 5 μg/mL (FIG. 7).

B1: BMP-2: human recombinant bone morphogenetic protein-2, manufactured by Yamanouchi Pharmaceutical Co. (protein, UniProt P12643 283-396, looked up)
Bone morphogenetic protein 2: QAKHKQRKRLKSSCKRHPLYVDFSDVGWNDWIVAPPGYHAFYCHGECPFPLADHLNSTNHAIVQTLVNSVNSKIPKACCVPTELSAISMLYLDENEKVVLKNYQDMVVEGCGCR
content of BMP-2 at which the expression amount of type II collagen was the largest: 200 ng/mL
